# Patent US5854388A, “Angiotensin IV peptides and receptor” (Washington State University Research Foundation, priority 1994, dated 1998)
# By UniProt entry, the sequences of proteins in these tests, tags left out. Residues count along the entry.
# UniProt H0VNM7, 1-1025: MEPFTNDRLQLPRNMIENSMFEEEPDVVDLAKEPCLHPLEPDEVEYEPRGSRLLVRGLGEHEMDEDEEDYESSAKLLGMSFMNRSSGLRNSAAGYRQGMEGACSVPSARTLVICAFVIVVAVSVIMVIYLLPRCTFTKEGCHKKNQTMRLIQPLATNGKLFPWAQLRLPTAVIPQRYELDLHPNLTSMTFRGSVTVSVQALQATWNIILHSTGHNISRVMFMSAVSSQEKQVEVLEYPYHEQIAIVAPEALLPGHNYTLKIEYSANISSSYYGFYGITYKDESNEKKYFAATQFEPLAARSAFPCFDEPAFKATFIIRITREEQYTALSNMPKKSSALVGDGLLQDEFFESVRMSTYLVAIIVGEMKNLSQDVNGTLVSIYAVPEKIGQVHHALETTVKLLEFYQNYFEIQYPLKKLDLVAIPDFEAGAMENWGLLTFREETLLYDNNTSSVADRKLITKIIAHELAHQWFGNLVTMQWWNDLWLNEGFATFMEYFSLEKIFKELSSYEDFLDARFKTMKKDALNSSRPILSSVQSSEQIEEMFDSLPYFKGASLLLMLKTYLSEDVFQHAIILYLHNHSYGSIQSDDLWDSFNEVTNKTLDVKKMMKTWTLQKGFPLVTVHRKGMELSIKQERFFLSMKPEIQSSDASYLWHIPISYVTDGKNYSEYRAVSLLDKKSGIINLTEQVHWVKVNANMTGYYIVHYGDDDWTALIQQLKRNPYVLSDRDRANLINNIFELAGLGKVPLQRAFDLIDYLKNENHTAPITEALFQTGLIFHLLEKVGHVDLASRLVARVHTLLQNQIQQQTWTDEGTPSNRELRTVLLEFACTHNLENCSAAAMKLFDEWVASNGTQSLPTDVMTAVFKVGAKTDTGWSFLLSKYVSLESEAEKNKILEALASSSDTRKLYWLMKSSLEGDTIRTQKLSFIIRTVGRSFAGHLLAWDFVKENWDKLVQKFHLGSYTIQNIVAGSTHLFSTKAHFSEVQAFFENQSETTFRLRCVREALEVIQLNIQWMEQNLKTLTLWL
# UniProt F1N1Q8, 1-1022: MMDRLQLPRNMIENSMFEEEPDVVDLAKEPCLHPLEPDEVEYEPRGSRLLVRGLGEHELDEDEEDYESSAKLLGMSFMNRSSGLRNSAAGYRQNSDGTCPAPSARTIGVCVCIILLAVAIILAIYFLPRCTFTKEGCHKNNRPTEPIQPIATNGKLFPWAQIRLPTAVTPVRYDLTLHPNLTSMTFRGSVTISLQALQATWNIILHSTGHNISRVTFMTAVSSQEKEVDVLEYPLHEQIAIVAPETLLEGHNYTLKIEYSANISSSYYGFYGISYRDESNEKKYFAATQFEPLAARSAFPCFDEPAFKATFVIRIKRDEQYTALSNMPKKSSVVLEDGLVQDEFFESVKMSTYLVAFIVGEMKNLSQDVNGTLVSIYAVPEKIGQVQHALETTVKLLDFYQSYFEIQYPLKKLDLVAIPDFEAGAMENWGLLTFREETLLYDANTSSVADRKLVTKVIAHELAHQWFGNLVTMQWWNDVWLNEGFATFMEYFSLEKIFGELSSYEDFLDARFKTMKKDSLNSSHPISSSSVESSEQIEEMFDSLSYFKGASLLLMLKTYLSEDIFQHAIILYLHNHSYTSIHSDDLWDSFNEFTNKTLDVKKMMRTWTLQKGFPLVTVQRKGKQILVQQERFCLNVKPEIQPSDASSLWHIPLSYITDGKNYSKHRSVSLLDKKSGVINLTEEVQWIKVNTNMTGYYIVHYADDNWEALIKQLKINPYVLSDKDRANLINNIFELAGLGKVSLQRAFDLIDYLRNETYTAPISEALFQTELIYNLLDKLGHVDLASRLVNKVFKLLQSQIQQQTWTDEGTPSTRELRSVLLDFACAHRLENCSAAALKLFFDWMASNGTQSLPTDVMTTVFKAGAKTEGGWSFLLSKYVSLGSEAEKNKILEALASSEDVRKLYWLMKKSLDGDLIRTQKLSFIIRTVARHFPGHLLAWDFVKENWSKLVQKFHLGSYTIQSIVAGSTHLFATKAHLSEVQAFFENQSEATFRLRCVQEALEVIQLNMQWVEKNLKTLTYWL
# How the values were obtained:
# rats = experiment: Passive avoidance conditioning after icv injection; type: in vivo, rat
# AT4 receptor [1] = target: AT4 receptor (Cavia porcellus, UniProt H0VNM7); experiment: 125I-AIV binding and competition, guinea pig hippocampus membranes; settings: competition of 0.6 nM 125I-AIV
# AT4 receptor [2] = target: AT4 receptor (Bos taurus, UniProt F1N1Q8); experiment: 125I-AIV binding and competition, solubilized bovine adrenal cortical receptor
# AT2 receptors = experiment: Autoradiography of 125I-Sar1,Ile8-AII binding in guinea pig brain; settings: 100 nM competitor, FIG. 3
structure (smiles),measurement,setting,value
CC(C)[C@H](N)CN[C@@H](Cc1ccc(O)cc1)C(=O)N[C@H](CN[C@@H](Cc1c[nH]cn1)C(=O)N1CCC[C@H]1C(=O)N[C@@H](Cc1ccccc1)C(=O)O)C(C)C,passive avoidance latency / cognitive effect (in words),rats,completely blocks the learning and/or retrieval of the passive avoidance task
CC[C@H](C)[C@H](NC(=O)[C@H](Cc1ccc(O)cc1)NC(=O)[C@@H](N)C(C)C)C(=O)O,pKi,AT4 receptor [1],< 6.00
CCCCCCC(=O)N[C@@H](Cc1ccc(O)cc1)C(=O)N[C@H](C(=O)O)[C@@H](C)CC,pKi,AT4 receptor [2]; competition of 125I-AIV binding,7.71
CC[C@H](C)[C@H](NC(=O)[C@H](Cc1ccc(O)cc1)NC(=O)[C@@H](NC(=O)[C@H](CCCNC(=N)N)NC(=O)[C@@H](N)CC(=O)O)C(C)C)C(=O)N[C@@H](Cc1cnc[nH]1)C(=O)N1CCC[C@H]1C(=O)N[C@@H](Cc1ccccc1)C(=O)O,"inhibition of 125I-Sar1,Ile8-AII binding by non-labeled competitor",AT2 receptors,specifically inhibited
CC[C@H](C)[C@H](NC(=O)[C@H](Cc1ccc(O)cc1)NC(=O)[C@@H](NC(=O)CNC)C(C)C)C(=O)N[C@@H](Cc1cnc[nH]1)C(=O)N1CCC[C@H]1C(=O)N[C@@H](Cc1ccccc1)C(=O)O,times less effective than AIV in competing binding,AT4 receptor [2],approximately 100 times

# pKi: −log10 of the molar value.
